45 molecules from PubChem BioAssay AID624467 (The Scripps Research Institute Molecular Screening Center, 2012) can be followed below.

The chains behind the UniProt entries cited, without tags or fusion partners. Where a name states a change or a piece, a line headed by the entry shows the natural chain unless it says otherwise.
UniProt Q96RJ0: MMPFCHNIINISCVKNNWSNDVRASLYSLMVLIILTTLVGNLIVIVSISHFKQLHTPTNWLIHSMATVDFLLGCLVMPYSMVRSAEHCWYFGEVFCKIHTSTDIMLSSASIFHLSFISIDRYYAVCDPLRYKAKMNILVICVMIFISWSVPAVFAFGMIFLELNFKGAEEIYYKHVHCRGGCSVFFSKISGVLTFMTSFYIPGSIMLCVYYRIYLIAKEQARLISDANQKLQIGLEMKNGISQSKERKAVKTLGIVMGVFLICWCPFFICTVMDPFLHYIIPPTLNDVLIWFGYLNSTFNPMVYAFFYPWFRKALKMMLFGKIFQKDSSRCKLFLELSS

Only a part is listed here, and it is no random draw. The source made the active and inactive calls.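 How the source made its calls: active means activation above the mean activation of all test compounds in the run plus 3 SD (cut at about 38% in these data); inactive means the rest.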

In this assay the target is Trace amine-associated receptor 1 (Homo sapiens) (UniProt Q96RJ0). The assay can be described thus: activators of TAAR1 calcium mobilization – Fluo-8 calcium fluorescence, CHO RD-HGA16 cells, primary screen (AID 624467). Particulars: CHO RD-HGA16 TAAR1, Fluo-8 calcium fluorescence; at 3 µM; stronger effect = higher value; vehicle wells 0%, saturating PEA agonist 100%.
As to `Cc1ccc(N/C(=N/P(=O)(N2CCOCC2)N2CCOCC2)N2CCOCC2)cc1`, the activation was inactive: 9.06%. As to `CN(C(=O)Cc1ccc(Cl)c(Cl)c1)[C@H]1CCCC[C@H]1N1CCCC1`, the activation was inactive: 1.28%. As to `NC(=O)c1cc([N+](=O)[O-])cc([N+](=O)[O-])c1N`, the activation was inactive: 3.13%.

`Clc1ccc(Cl)c(NC2=NCC(CBr)S2)c1` (stereo not given): the activation was inactive: 2.65%. As to `CN1CCCC(OC(=O)C(c2ccccc2)c2ccccc2)C1` (stereo not given), the activation was inactive: 5.41%.

In the case of `Cc1ccc(OP(=O)(Nc2nccs2)Oc2ccc(C)cc2)cc1`, the activation is inactive: 4.5%. Under `COc1ccccc1OP(=O)(Nc1ccc(C)cn1)Oc1ccccc1OC` stands inactive: 14.3%; under `O=C(NC(Sc1ccncn1)C(Cl)(Cl)Cl)c1ccccc1` (stereo not given), inactive: 0.59%; under `Oc1ccccc1CNc1ccccn1`, inactive: 4.54%. `CC(C)CC(=O)NC(Sc1ccc(Cl)cc1)C(Cl)(Cl)Cl` (stereo not given): the activation was inactive: 14.1%. The figure for `Nc1cc(N)c2nonc2c1[N+](=O)[O-]` is inactive: 0.62%. In the case of `CN(C)P(=O)(N(C)C)n1c(Nc2ccccc2)nnc1-c1ccccc1`, the activation is inactive: 3.34%. The figure for `O=P(Nc1nc2ccc(Cl)cc2s1)(c1ccccc1)c1ccccc1` is inactive: 5.27%; for `CCCC1OP(N)(=O)OCC1CC` (stereo not given) it is inactive: 1.54%.

Turning to `O=C(O)c1ccccc1[As](=O)(O)O`, the activation is inactive: -0.64%. Under `CC(=O)Nc1ccc([As](=O)(O)O)cc1` stands inactive: 0.58%. Regarding `CCn1c(=O)n(C2CCN(CC3CCCCCCC3)C[C@H]2CO)c2ccccc21` (stereo not given in full), the activation is inactive: -0.34%. Consider `Cc1ccc(NP(=O)(Oc2ccccc2F)Oc2ccccc2F)nc1`, for which the activation was inactive: 2.01%. With `CN(C(=O)Cc1ccc(Cl)c(Cl)c1)[C@H]1CCCC[C@@H]1N1CCCC1`, the activation was inactive: 1.89%. In the case of `CCOP(=O)(Nc1ccccc1)OCC`, the activation was inactive: -0.42%.

Turning to `Cc1cc(SC(NC(=O)c2ccc(F)cc2)C(Cl)(Cl)Cl)ncn1` (stereo not given), the activation was inactive: 2.83%.

On to `Nc1cccc2ccc([As](=O)(O)O)cc12`, for which the activation was inactive: 4.2%. Under `CCN(N=Nc1nonc1N)c1nonc1N` stands inactive: -0.52%; under `CN(C(=O)Cc1ccccc1)C1CC[C@@]2(CCCO2)C[C@@H]1N1CCCC1` (stereo not given in full), inactive: 0.26%.

On to `O=P1(N(CCCl)CCCl)OCCCS1` (stereo not given), for which the activation is inactive: 0.72%. The figure for `O=C(Nc1cc([As](=O)(O)O)ccc1O)c1ccccc1` is inactive: 0.72%; for `O=[N+]([O-])c1ncn(CCn2ncnc2[N+](=O)[O-])n1` it is inactive: 7.04%. Under `CC(C)(C)C(=O)NC(Sc1ccncn1)C(Cl)(Cl)Cl` (stereo not given) stands inactive: -0.7%; under `O=C(O)CNc1ccc([As](=O)(O)O)cc1`, inactive: -0.29%; under `O=[N+]([O-])c1cccc(NC2=NCC(CBr)S2)c1` (stereo not given), inactive: 3.02%.

As for `COC(=O)C1(C)COP(=O)(Nc2ccccc2)OC1` (stereo not given), the activation was inactive: 2.02%. In the case of `COc1ccc(C2=NCC(CBr)S2)cc1` (stereo not given), the activation was inactive: 7.95%.

Regarding `CCc1nc2c(n1)c1c(non1O)c1c2no[n+]1[O-]`, the activation was inactive: 17.3%. Turning to `O=[N+]([O-])c1cc([N+](=O)[O-])c(CCNc2ccccc2)c([N+](=O)[O-])c1`, the activation is inactive: -1.54%. For `Cc1ccc(NP(=O)(Oc2ccccc2)Oc2ccccc2)nc1`, the activation was inactive: -2.28%. `O=[N+]([O-])c1cccc2n[nH]nc12`: the activation is inactive: 18.1%. The figure for `CC(=O)N1C2C3N(C(C)=O)C1C1N(C(C)=O)C(C(N1C(C)=O)N3C(C)=O)N2C(C)=O` is inactive: 7.1%; for `CCN(/C(=N/P(=O)(N1CCOCC1)N1CCOCC1)N1CCOCC1)c1ccc(OC)cc1` it is inactive: 1.4%; for `C[N+]1=C2C=CC=CC=C2SC12C([N+](=O)[O-])=CC([N+](=O)[O-])=C[C-]2[N+](=O)[O-]` (stereo not given) it is inactive: 5.78%. Consider `Nc1ccc([As](=O)(O)c2ccc(N)cc2)cc1`, for which the activation is inactive: 1.36%. As for `c1cc(-c2nn[nH]n2)ccc1-c1nn[nH]n1`, the activation is inactive: -0.59%. Regarding `CC1CCN(C(=O)Oc2c(Cl)cc(Cl)c3cccnc23)CC1`, the activation was inactive: 25.4%. Turning to `CN(C)C(=O)OCCc1n(C)cc[n+]1C`, the activation is inactive: 0.16%. For the molecule `CC(C)=N/N=C(\N)N[N+](=O)[O-]`, the activation was inactive: 0.66%.

For `CC(C)c1nc(Nc2ccccc2)n(P(=O)(N(C)C)N(C)C)n1`, the activation is inactive: 9.53%.
